Results as given in ChEMBL document CHEMBL4043138, “Synthesis of antimalarial amide analogues based on the plant serrulatane diterpenoid 3,7,8-trihydroxyserrulat-14-en-19-oic acid” (Bioorg Med Chem Lett, 2017).

Test: Selectivity ratio of IC50 for Plasmodium falciparum Dd2 to IC50 for Plasmodium falciparum 3D7
Type: functional

Compound C[C@H]1[C@H](OC(=O)CCC(=O)O)O[C@@H]2O[C@@]3(C)CC[C@H]4[C@H](C)CC[C@@H]1[C@@]24OO3 [ARTESUNATE] has a Ratio IC50 of 0.82.
